{
  "sequences": {"note": "By UniProt entry, the sequences of proteins in these tests, tags left out.", "UniProt Q01970, whole entry": "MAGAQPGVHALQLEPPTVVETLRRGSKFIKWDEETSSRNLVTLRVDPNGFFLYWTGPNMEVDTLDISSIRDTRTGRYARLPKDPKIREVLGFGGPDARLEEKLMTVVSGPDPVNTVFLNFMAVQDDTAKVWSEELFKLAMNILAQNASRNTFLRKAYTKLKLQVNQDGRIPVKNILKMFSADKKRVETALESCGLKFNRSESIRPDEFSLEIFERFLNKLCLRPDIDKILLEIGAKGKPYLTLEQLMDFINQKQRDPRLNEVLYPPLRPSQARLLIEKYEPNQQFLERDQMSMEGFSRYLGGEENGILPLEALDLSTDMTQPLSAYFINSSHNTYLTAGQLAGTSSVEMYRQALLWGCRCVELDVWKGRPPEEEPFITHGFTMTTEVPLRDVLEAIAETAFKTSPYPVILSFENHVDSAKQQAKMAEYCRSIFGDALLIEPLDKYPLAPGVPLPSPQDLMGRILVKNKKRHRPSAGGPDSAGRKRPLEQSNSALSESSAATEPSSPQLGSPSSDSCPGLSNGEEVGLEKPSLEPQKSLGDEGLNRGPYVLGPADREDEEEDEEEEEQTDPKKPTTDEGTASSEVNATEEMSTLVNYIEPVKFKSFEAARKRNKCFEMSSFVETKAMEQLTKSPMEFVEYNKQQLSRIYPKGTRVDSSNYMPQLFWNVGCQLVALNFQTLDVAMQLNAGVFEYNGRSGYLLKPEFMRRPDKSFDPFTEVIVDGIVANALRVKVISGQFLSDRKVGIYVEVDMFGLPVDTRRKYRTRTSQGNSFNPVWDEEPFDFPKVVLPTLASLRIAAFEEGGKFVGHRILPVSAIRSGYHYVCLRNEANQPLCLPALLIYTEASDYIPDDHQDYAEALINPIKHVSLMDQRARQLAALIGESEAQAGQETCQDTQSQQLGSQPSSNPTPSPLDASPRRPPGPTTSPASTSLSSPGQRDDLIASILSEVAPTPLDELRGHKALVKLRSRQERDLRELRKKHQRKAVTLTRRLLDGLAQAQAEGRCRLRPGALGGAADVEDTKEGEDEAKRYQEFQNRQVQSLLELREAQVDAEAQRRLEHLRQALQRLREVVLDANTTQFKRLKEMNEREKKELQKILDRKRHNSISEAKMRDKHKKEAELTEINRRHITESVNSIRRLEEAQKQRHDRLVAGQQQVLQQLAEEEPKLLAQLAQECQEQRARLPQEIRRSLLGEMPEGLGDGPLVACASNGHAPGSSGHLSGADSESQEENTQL"},
  "source": "PubChem BioAssay AID743261",
  "about": "(The Scripps Research Institute Molecular Screening Center, 2014)",
  "note": "The entries are a selection whose mix differs from that of the whole data set. Some results for these compounds are left out of this collection, so the calls shown say nothing about other tests. Active and inactive are the calls of the source. No stated cut-off is given here; in the data, active means inhibition above about 11%; inactive means the rest.",
  "data": [
    {"molecular_target": "1-phosphatidylinositol 4,5-bisphosphate phosphodiesterase beta-3 (Homo sapiens) (UniProt Q01970)", "assay": "retest of human PLCB3 enzyme blockers – biochemical, fluorescence, purified enzyme, confirmation (AID 743261)", "details": "purified PLC-beta3, fluorogenic substrate fluorescence; at 12.3 µM; active compounds read high", "values": [
      {"smiles": "CCN1CCCC(OC(=O)C2(O)c3ccccc3C=Cc3ccccc32)C1", "note": "(stereo unspecified)", "inhibition": "inactive: -0.78%"}
    ]}
  ]
}
